Values of other authors as cited in article PMC6173998.
pKi: −log10 of the molar value.

Biological target: FXIa (Homo sapiens) (UniProt P03951)

In the case of aprotinin (from UniProt P00974), the pKi is listed as 6.54.
